# Several values for one entry are separate records, joined by “and”; a condition that tells them apart may be missing. Identical values can stand only once. The list shows a part of the results, in another mix than the full data. Records with an inconclusive call do not appear. For some of these results: Measured potencies and affinities stand elsewhere. Activity calls are given as the source filed them. Unless noted, calls come from the whole dose curve; as a rule, active = well fitted curve in the direction sought with a large enough effect; inconclusive = small, poorly fitted or top-dose-only effect, or another doubt; inactive = no such curve, though single readings can be large; an effect the other way counts as inactive or inconclusive.
# By UniProt entry, the sequences of proteins in these tests, tags left out. Where a name states a change or a piece, a line headed by the entry shows the natural chain unless it says otherwise.
# UniProt Q07869: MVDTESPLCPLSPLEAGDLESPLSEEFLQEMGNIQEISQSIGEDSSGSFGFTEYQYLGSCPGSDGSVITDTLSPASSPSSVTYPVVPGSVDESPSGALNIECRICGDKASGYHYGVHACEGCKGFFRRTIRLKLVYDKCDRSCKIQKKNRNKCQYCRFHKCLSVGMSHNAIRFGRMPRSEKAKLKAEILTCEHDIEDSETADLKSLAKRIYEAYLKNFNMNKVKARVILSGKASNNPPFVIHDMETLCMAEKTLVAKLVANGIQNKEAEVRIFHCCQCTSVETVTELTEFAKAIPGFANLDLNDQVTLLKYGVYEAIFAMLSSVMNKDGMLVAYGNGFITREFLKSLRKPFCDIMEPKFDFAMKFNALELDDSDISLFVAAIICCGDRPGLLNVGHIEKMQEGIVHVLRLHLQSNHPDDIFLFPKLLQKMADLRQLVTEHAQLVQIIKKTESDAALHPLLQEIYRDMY
# UniProt O15297: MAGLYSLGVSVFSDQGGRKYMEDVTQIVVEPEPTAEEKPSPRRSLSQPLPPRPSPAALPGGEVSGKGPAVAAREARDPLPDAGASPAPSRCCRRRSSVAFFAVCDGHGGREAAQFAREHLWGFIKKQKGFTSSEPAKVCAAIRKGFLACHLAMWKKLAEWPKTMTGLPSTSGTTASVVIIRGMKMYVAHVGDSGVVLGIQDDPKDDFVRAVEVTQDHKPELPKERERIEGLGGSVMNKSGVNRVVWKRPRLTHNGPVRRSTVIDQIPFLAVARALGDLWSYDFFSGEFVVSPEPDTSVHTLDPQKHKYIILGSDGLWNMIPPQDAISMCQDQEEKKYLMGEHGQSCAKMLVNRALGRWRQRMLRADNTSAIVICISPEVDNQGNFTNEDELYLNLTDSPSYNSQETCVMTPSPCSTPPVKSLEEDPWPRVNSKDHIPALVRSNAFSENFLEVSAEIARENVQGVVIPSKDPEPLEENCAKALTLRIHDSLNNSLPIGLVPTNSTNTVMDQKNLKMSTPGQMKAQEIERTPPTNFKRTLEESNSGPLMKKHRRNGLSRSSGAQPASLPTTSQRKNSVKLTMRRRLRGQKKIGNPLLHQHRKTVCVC
# UniProt Q99828: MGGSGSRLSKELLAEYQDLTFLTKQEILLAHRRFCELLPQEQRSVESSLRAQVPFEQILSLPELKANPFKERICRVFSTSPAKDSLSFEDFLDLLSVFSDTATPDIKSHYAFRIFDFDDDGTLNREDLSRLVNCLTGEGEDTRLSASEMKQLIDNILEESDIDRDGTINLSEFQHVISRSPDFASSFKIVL
# UniProt P10635, whole entry, looked up: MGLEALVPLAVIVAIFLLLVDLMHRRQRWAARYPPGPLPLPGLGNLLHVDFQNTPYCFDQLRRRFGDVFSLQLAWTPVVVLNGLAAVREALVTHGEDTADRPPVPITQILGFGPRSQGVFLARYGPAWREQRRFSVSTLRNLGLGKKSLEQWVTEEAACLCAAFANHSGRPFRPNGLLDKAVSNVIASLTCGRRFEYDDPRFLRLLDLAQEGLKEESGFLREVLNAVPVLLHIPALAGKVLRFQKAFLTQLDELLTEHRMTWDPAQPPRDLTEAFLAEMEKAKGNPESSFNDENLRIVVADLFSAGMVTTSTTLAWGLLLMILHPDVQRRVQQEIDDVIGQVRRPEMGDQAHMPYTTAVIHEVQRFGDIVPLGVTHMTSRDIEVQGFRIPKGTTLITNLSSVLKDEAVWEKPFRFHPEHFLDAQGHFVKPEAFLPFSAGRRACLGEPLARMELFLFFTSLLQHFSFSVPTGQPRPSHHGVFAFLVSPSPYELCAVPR
# UniProt Q9R1A7: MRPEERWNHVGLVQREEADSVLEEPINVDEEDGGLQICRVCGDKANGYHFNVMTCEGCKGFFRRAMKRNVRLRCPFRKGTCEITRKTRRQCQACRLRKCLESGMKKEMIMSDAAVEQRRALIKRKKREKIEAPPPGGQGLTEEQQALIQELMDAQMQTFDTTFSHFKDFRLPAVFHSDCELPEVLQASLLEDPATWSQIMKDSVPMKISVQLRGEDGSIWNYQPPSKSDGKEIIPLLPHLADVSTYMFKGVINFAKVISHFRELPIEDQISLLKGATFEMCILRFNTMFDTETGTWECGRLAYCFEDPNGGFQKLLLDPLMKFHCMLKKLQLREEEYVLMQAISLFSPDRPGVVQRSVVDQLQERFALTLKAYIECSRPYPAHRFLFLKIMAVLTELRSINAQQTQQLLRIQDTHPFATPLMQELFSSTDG
# Legend:
# [1] = qHTS assay to identify small molecules that stimulate interleukin-8 (IL-8) secretion (AID 651758; active = well fitted activation curve with a large enough effect in the signal ratio; the % refers to the signal ratio; note: potency is the fitted concentration of half-maximal effect); conditions: HTRF ratio (665/615)
# [2] = qHTS assay for environmental chemicals that activate the Aryl hydrocarbon Receptor (AhR) signaling pathway (AID 651777); conditions: 1A2-DRE human hepatoma cells, luciferase, 24 h; stronger effect = higher value; note: % of control where 0% means no effect; nearly all actives have a fitted effect of over 15% in size
# Summary of the method: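 Luminescence (One-Glo, 30 min, room temperature) reports AhR-driven luciferase in stably transfected human hepatoma cells bearing DRE and CYP1A2 promoter. Cells (1,200/well) were treated with compound for 24 hr at 37 C in qHTS format.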
# [3] = target: Peroxisome proliferator-activated receptor alpha (Homo sapiens) (UniProt Q07869); assay: qHTS assay for small molecule agonists of the peroxisome proliferator-activated receptor alpha (PPARalpha) signaling pathway (AID 651778); conditions: PathHunter PPARalpha complementation, chemiluminescence, 6 h; stronger effect = higher value; note: % of control where 0% means no effect
# [4] = qHTS assay for small molecule agonists of the antioxidant response element (ARE) signaling pathway measured by Nrf2-dependant transcriptional activity (AID 720636; active = well fitted curve in the direction sought with a large enough effect in the repeat runs; an effect the other way counts as inactive or inconclusive;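 note: HepG2 cells with an ARE-driven luciferase reporter; % of control where 0% means no effect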); conditions: ARE-luc HepG2, Nrf2 luciferase reporter, 16 h; at 92.4 µM (top of the series)
# [5] = qHTS assay for small molecule agonists of the antioxidant response element (ARE) signaling pathway measured by Nrf2-dependant transcriptional activity - cell viability counter screen (AID 720653; active = well fitted curve in the direction sought with a large enough effect in the repeat runs; an effect the other way counts as inactive or inconclusive; note: % is set by controls: 0 for no effect and ±100 for the full control effect); conditions: ARE-bla HepG2 viability, CellTiter-Glo ATP luminescence, 16 h; stronger effect = lower value
# Summary of the method: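 Cytotoxicity counter screen: intracellular ATP quantified by CellTiter-Glo luminescence in the same ARE-bla HepG2 plates, after 16 h compound exposure and a 2 h beta-lactamase substrate step.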
# [6] = qHTS Assay for Identifying Gametocytocidal Compounds (AID 743244);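 note: % is set by controls: 0 for no effect and ±100 for the full control effect; actives lower the fluorescent signal which means gametocytes are killed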; conditions: P. falciparum 3D7 stage III-V gametocytes, alamarBlue, 72 h; max response: stronger effect = lower value
# [7] = qHTS assay for cell viability of HEK293 cells (AID 743288); conditions: ATP luminescence (CellTiter-Glo), 18 h; max response: stronger effect = lower value; note: % is set by controls: 0 for no effect and ±100 for the full control effect; nearly all actives have a fitted effect of over 50% in size
# Summary of the method: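 Environmental chemicals tested in qHTS format against parental HEK293 cells; 18 h treatment, 37 C; read-out ATP luminescence (CellTiter-Glo), 30 min RT development.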
# [8] = qHTS assay for cell viability of the p53RE-bla HCT-116 cell line (AID 743292); note: % is set by controls: 0 for no effect and ±100 for the full control effect; nearly all actives have a fitted effect of over 55% in size
# Summary of the method: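 ATP-based luminescent viability (CellTiter-Glo, 30 min RT) after 16 h compound treatment at 37 C of p53RE-bla HCT-116 cells, seeded at 4,000 cells/well and rested 5 h before dosing.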
# [9] = qHTS of pediatric cancer cell lines to identify multiple opportunities for drug repurposing: Primary screen for DAOY cells (AID 1347090); note: potency is the fitted concentration of half-maximal effect; nearly all actives have a fitted effect of over 55% in size
# [10] = qHTS of pediatric cancer cell lines to identify multiple opportunities for drug repurposing: Primary screen for BT-12 cells (AID 1347101); note: potency is the fitted concentration of half-maximal effect; nearly all actives have a fitted effect of over 25% in size
# [11] = qHTS of pediatric cancer cell lines to identify multiple opportunities for drug repurposing: Primary screen for Rh18 cells (AID 1347102); conditions: Rh18 rhabdomyosarcoma viability, CellTiter-Glo luminescence, 48 h; at 46 µM (top of the series) unless noted; note: % is set by controls: 0 for no effect and ±100 for the full control effect; nearly all actives have a fitted effect of over 65% in size
# [12] = qHTS of pediatric cancer cell lines to identify multiple opportunities for drug repurposing: Primary screen for OHS-50 cells (AID 1347103); note: potency is the fitted concentration of half-maximal effect; nearly all actives have a fitted effect of over 40% in size
# [13] = qHTS to identify inhibitors of the type 1 interferon - major histocompatibility complex class I in skeletal muscle: primary screen against the NCATS Pharmaceutical Collection (AID 1347407); conditions: human skeletal muscle cells, IFN-b-induced MHC-I HiBiT luminescence, 24 h; at 45.9 µM (top of the series) unless noted;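 note: luminescence of HiBiT knocked into endogenous HLA-B as interferon-induced MHC class I level; % is set by controls: 0 for no effect and ±100 for the full control effect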
# Summary of the method: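 HLA-B HiBiT myoblasts, dexamethasone-free growth medium + 4 ng/ml IFN-b; compounds pinned 1 h after seeding, […] from 46 uM; 24 h, 37 C, 5% CO2; lytic HiBiT detection, 10 min RT, luminescence.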
# [14] = target: Protein phosphatase 1D (Homo sapiens) (UniProt O15297); assay: RapidFire Mass Spectrometry qHTS Assay for Modulators of WT P53-Induced Phosphatase 1 (WIP1) (AID 1347424); conditions: WIP1 dephosphorylation of phosphopeptide, RapidFire MS; at 63 µM (top of the series) unless noted;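 note: amount of dephosphorylated VEPPL-S-QETFS peptide product formed by WIP1; plate controls were DMSO wells for no effect and GSK830371 inhibitor control at 10 µM for full effect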
# Summary of the method: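 10 nM WIP1 + cpd, 1 h RT; + 2 uM VEPPL-pS-QETFS, 5 min RT; stop 0.5% formic acid; labelled product standard 1 uM; RapidFire MS. Buffer 50 mM Tris pH 7.5, 30 mM MgCl2, 1 mM TCEP.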
# [15] = target: Calcium and integrin-binding protein 1 (Homo sapiens) (UniProt Q99828); assay: Primary qHTS for Identification of Calcium Integrin Binding Protein 1 (CIB1) Competitor (AID 1508620); conditions: CIB1-GST / FITC-alphaIIb peptide fluorescence polarization; at 114 µM (top of the series) unless noted;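 note: GST tagged CIB1 binding a fluorescein labelled alphaIIb integrin peptide tracer; top concentration of the series differs between compounds; % is set by controls: 0 for no effect and ±100 for the full control effect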
# [16] = A High-Content qHTS Against Drug Library for the Identification of Small Molecules that Inhibit DYT1 Early Onset Primary Dystonia-Associated Cell Pathology (AID 1645839; calls by dose curve; note: potency is the fitted concentration of half-maximal effect)
# Summary of the method: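 In this high-content image screen, delE TorsinA mislocalization in inducible Flp-In 293 cells is scored as %pathology, with cell count serving as the counterscreen. Compound exposure lasts 48 h under tetracycline induction in reduced-serum medium.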
# [17] = target: Cytochrome P450 2D6 (Homo sapiens) (UniProt P10635); assay: Cytochrome P450 family 2 subfamily D member 6 (CYP2D6) small molecule antagonists: luciferase biochemical (cell-free) qHTS assay (AID 1645840; active = well fitted curve in the direction sought with a large enough effect in the repeat runs; an effect the other way counts as inactive or inconclusive; note: % is set by controls: 0 for no effect and ±100 for the full control effect; nearly all actives have a fitted effect of over 55% in size)
# Summary of the method: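 P450-Glo luminescent screen: recombinant CYP2D6 enzyme–proluciferin substrate mix preincubated with compound 10 min at room temperature, then NADPH regeneration added for 1 h at room temperature. Detection reagent added for 20 min; luciferin light read as relative luminescence units.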
# [18] = target: Nuclear receptor subfamily 1 group I member 2 (Rattus norvegicus) (UniProt Q9R1A7); assay: qHTS assay for small molecule activators of the rat pregnane X receptor (rPXR) signaling pathway (AID 651751; call rule not given here; note: 0% is about no effect); conditions: rPXR reporter cells, luciferase (One-Glo), 24 h
# [19] = qHTS assay for small molecule activators of the human pregnane X receptor (PXR) signaling pathway (AID 720659; call rule not given here; note: 0% is about no effect); conditions: DPX-2 HepG2 CYP3A4-luciferase, 24 h; at 92.3 µM (top of the series)
smiles,measurement,setting,value
Cc1cc([N+](=O)[O-])cc([N+](=O)[O-])c1O,Potency,[1],active: 66.8 µM
same,activation,[2],inactive: 0.565% and inactive: 0.551%
same,max response,[3],inactive: -12.1% and inactive: -6.84%
same,activation,[4],inactive: -0.831% and inactive: -0.322%
same,max response,[5],inactive: -16.1%
same,max response,[6],inactive: 39.1%
same,max response,[7],inactive: -13.6%
same,Potency,[8],inactive
same,Potency,[9],active: 38.6 µM
same,Potency,[10],active: 25.2 µM
same,"activity change, negative = cytotoxic",[11],inactive: -19% [at 92.7 µM]
same,Potency,[12],active: 50.2 µM
same,"activity change, negative = inhibition",[13],inactive: -16.5% [at 92.2 µM]
same,"activity change, negative = inhibition",[14],inactive: -0.394% [at 128 µM]
same,"activity change, negative = inhibition",[15],inactive: -7.23% [at 228 µM]
same,Potency,[16],active: 28.2 µM
same,Potency,[17],inactive
same,max response,[18],inactive: -20.2% and inactive: -16.9%
same,activation,[19],inactive: -7.53% and inactive: 21%

# — PubChem BioAssay (NCATS)
